Laboratory results as given in PMC11508426.

Tests used:
Test in all cases: fluorescence microscopy of F-actin held on a fragment-coated flow cell surface; C0-C2 fragment (0-2000 nM loading concentration) added to the nitrocellulose-coated flow cell surface for 2 min, BSA for 5 min, washed three times with AB buffer; fluorescently labeled F-actin (10 nM) added for 5 min; total intensity of filament images, 10 fields of view, at least three flow cells; Hill equation fit
[1] = target: P161S C0-C1-m-C2 fragment of human cardiac myosin-binding protein C (cMyBP-C) (human) (UniProt Q14896)
[2] = target: WT C0-C1-m-C2 fragment of human cardiac myosin-binding protein C (cMyBP-C) (human) (UniProt Q14896)
[3] = target: D75N C0-C1-m-C2 fragment of human cardiac myosin-binding protein C (cMyBP-C) (human) (UniProt Q14896)

“rabbit skeletal actin, filamentous (F-actin) (from UniProt P68135 1-377) (natural protein)” was tested, and the EC50 [1] was 277 nM, the EC50 [2] was 299 nM and the EC50 [3] was 566 nM.
